{"source": "paper PMC6985722", "about": "“A Randomized, Placebo-Controlled, Respiratory Syncytial Virus Human Challenge Study of the Antiviral Efficacy, Safety, and Pharmacokinetics of RV521, an Inhibitor of the RSV-F Protein” (Antimicrobial Agents and Chemotherapy, 2020)", "format_in_all_cases": "in vivo", "key": {"RSV-A Memphis-37b [1]": {"system": "RSV-A Memphis-37b", "assay": "RSV human challenge study: disease severity (total symptom score, nasal mucus weight)", "conditions": "for Daily nasal mucus weight, difference in LS mean relative to placebo / Peak total symptom score, difference in mean relative to placebo (95% CI) / Time to peak total symptom score, difference in mean relative to placebo (95% CI) / Time to resolution from peak total symptom score, difference in mean relative to placebo: ITT-A; for AUC total symptom score, reduction in mean relative to that of placebo / Daily nasal mucus weight, difference in LS mean relative to that of placebo / Peak total symptom score, difference in mean relative to that of placebo (95% CI) / Time to peak total symptom score, difference in mean relative to that of placebo (95% CI): ITT-I", "procedure": "(§1) Subjects were screened outside the RSV season for eligibility, including measurement of RSV-A Memphis-37b-specific neutralizing antibody titer, ≤90 days before virus challenge. Eligible subjects were admitted to the quarantine unit on day −2 or day −1 and were inoculated intranasally on day 0 with the challenge virus, RSV-A Memphis-37b (4 log10 PFU/ml, given as one 0.4-ml installation per naris), as previously described ([26]). Nasal wash sampling every 12 h for confirmation of RSV infection by qualitative integrated cycler PCR ([12], [19]) began on the morning of day 2. Treatment began 12 h (±1 h) after collection of a nasal wash sample confirming RSV infection or on the evening of day 5 if RSV infection remained unconfirmed by the morning of day 5.\n(§2) The study comprised two consecutive cohorts. Subjects in the first cohort received 200 mg RV521 or placebo; those in the second received 350 mg RV521 or placebo. […] In each cohort, subjects received 10 consecutive doses of RV521 or placebo, administered in a fasted state as oral capsules, approximately 12 h apart. Subjects were discharged on day 12 if nasopharyngeal swab samples tested negative by RSV rapid antigen assay (QuickVue RSV test; Quidel, San Diego, CA, USA). If such tests were positive or if a subject remained symptomatic, quarantine was extended to allow further observation. All subjects were evaluated on day 28 (±3 days).\n(§3) Twice-daily collection of nasal wash samples allowed measurement of viral load via RT-qPCR and quantitative culture. RT-qPCR results were reported as PFUe/ml when the standard curve included in each assay contained a known infectious amount (PFU) of RSV, as described previously ([30]). Subjects reported the occurrence and severity of symptoms three times daily using a 10-item subject symptom diary card as previously reported ([12]) (see Supplemental Methods). Throughout the quarantine period, used tissues were collected and weighed daily, and total nasal mucus weight was recorded. PK assessments were based on venous blood samples. Safety assessments included measurement of vital signs, standard 12-lead ECG recordings, spirometry, a complete physical examination, and a respiratory-directed physical examination. AEs were monitored daily, coded according to the Medical Dictionary for Regulatory Activities Version 20.0, and graded according to the National Cancer Institute Common Terminology Criteria for Adverse Events Version 4.0 (see Supplemental Methods for further details).\n(§4) The primary efficacy endpoint was AUC for RSV viral load, as measured by RT-qPCR, in nasal wash samples taken twice daily from just before the first dose until discharge (day 12). Viral load data were provided as log10 PFUe/ml; AUC (log10 PFUe/ml · h) was calculated using the trapezoid rule. Secondary efficacy endpoints related to viral load were AUC of RSV viral load, as assessed by quantitative culture, and the following measures, which were each assessed using both RT-qPCR and quantitative culture: peak viral load, time to peak viral load, and time to <1 log10 (for RT-qPCR) or undetectable (for quantitative culture) viral load (considered to occur at the first confirmed undetectable assessment after which no further virus was detected). Secondary efficacy endpoints related to clinical symptoms included AUC total symptom score; peak total symptom score; time to peak total symptom score; and the total weight of nasal mucus produced. Other secondary outcomes were safety, PK, and sequence detection of viral variants (see Supplemental Methods).\nAll statistical analyses were performed using two-sided testing. Student’s t tests were performed for normally distributed data with a constant variance; otherwise, the Satterthwaite t test or nonparametric tests were used. For the mucus weight analysis, the least-squares mean was calculated from a mixed model with repeated measures, adjusted for baseline mucus weight and treatment group as covariates and subject as a random effect."}, "RSV-A Memphis-37b [2]": {"system": "RSV-A Memphis-37b", "assay": "RSV human challenge study: viral load in nasal wash by quantitative culture", "conditions": "for Peak viral load (quantitative culture), difference in mean relative to placebo: ITT-A; for Peak viral load (quantitative culture), difference in mean relative to that of placebo (95% CI): ITT-I", "procedure": "as §1, §2\nTwice-daily collection of nasal wash samples allowed measurement of viral load via RT-qPCR and quantitative culture. […] Throughout the quarantine period, used tissues were collected and weighed daily, and total nasal mucus weight was recorded. […] AEs were monitored daily, coded according to the Medical Dictionary for Regulatory Activities Version 20.0, and graded according to the National Cancer Institute Common Terminology Criteria for Adverse Events Version 4.0 (see Supplemental Methods for further details).\nas §4, with “Secondary efficacy endpoints related to clinical symptoms included AUC total symptom score; peak total symptom score; time to peak total symptom score; and the total weight of nasal mucus produced. Other secondary outcomes were safety, PK, and sequence detection of viral variants (see Supplemental Methods).” left out"}, "RSV-A Memphis-37b [3]": {"system": "RSV-A Memphis-37b", "assay": "RSV human challenge study: viral load in nasal wash by RT-qPCR", "conditions": "for AUC of viral load (RT-qPCR), difference in mean relative to placebo / Peak viral load (RT-qPCR), difference in mean relative to placebo / Time to peak viral load (RT-qPCR), difference in mean relative to placebo: ITT-A; for AUC of viral load (RT-qPCR), difference in mean relative to that of placebo (95% CI) / Peak viral load (RT-qPCR), difference in mean relative to that of placebo (95% CI) / Time to peak viral load (RT-qPCR), difference in mean relative to that of placebo (95% CI): ITT-I", "procedure": "as §1, §2, §3, §4\nThe primary efficacy analysis population (the ITT-I analysis set) comprised all randomized subjects who received challenge virus and at least one dose of study drug and met the criterion for laboratory-confirmed RSV infection (presence of detectable RSV). […]"}}, "data": [{"smiles": "NCc1ccc2c(c1)nc(CN1C(=O)C3(CC3)c3ccc(F)cc31)n2CCCC(F)(F)F", "note": "[RV521]", "values": [{"measurement": "Daily nasal mucus weight, difference in LS mean relative to placebo", "setting": "RSV-A Memphis-37b [1]; 200 mg", "value": 52.94, "unit": "%"}, {"measurement": "Peak total symptom score, difference in mean relative to placebo (95% CI)", "setting": "RSV-A Memphis-37b [1]; 200 mg", "value": "–3.22 (–6.03, –0.40)"}, {"measurement": "Time to peak total symptom score, difference in mean relative to placebo (95% CI)", "setting": "RSV-A Memphis-37b [1]; 200 mg", "value": "–0.25 (–1.73, 1.22) days"}, {"measurement": "Time to resolution from peak total symptom score, difference in mean relative to placebo", "setting": "RSV-A Memphis-37b [1]; 200 mg", "value": "–1.46 days"}, {"measurement": "AUC total symptom score, reduction in mean relative to that of placebo", "setting": "RSV-A Memphis-37b [1]; 200 mg", "value": 70.84, "unit": "%"}, {"measurement": "Daily nasal mucus weight, difference in LS mean relative to that of placebo", "setting": "RSV-A Memphis-37b [1]; 200 mg", "value": 45.90, "unit": "%"}, {"measurement": "Peak total symptom score, difference in mean relative to that of placebo (95% CI)", "setting": "RSV-A Memphis-37b [1]; 200 mg", "value": "−2.72 (−5.22, −0.22)"}, {"measurement": "Time to peak total symptom score, difference in mean relative to that of placebo (95% CI)", "setting": "RSV-A Memphis-37b [1]; 200 mg", "value": "0.25 (−1.24, 1.75) days"}, {"measurement": "Daily nasal mucus weight, difference in LS mean relative to placebo", "setting": "RSV-A Memphis-37b [1]; 350 mg", "value": 61.76, "unit": "%"}, {"measurement": "Peak total symptom score, difference in mean relative to placebo (95% CI)", "setting": "RSV-A Memphis-37b [1]; 350 mg", "value": "–3.54 (–6.37, –0.72)"}, {"measurement": "Time to peak total symptom score, difference in mean relative to placebo (95% CI)", "setting": "RSV-A Memphis-37b [1]; 350 mg", "value": "–0.82 (–2.06, 0.43) days"}, {"measurement": "Time to resolution from peak total symptom score, difference in mean relative to placebo", "setting": "RSV-A Memphis-37b [1]; 350 mg", "value": "–1.75 days"}, {"measurement": "AUC total symptom score, reduction in mean relative to that of placebo", "setting": "RSV-A Memphis-37b [1]; 350 mg", "value": 78.42, "unit": "%"}, {"measurement": "Daily nasal mucus weight, difference in LS mean relative to that of placebo", "setting": "RSV-A Memphis-37b [1]; 350 mg", "value": 55.74, "unit": "%"}, {"measurement": "Peak total symptom score, difference in mean relative to that of placebo (95% CI)", "setting": "RSV-A Memphis-37b [1]; 350 mg", "value": "−3.12 (−5.59, −0.64)"}, {"measurement": "Time to peak total symptom score, difference in mean relative to that of placebo (95% CI)", "setting": "RSV-A Memphis-37b [1]; 350 mg", "value": "−0.26 (−1.56, 1.03) days"}, {"measurement": "Peak viral load (quantitative culture), difference in mean relative to placebo", "setting": "RSV-A Memphis-37b [2]; 200 mg", "value": "–1.78 log10 PFU/mL"}, {"measurement": "Peak viral load (quantitative culture), difference in mean relative to that of placebo (95% CI)", "setting": "RSV-A Memphis-37b [2]; 200 mg", "value": "−1.54 (−2.77, −0.30) log10 PFU/ml"}, {"measurement": "Peak viral load (quantitative culture), difference in mean relative to placebo", "setting": "RSV-A Memphis-37b [2]; 350 mg", "value": "–1.79 log10 PFU/mL"}, {"measurement": "Peak viral load (quantitative culture), difference in mean relative to that of placebo (95% CI)", "setting": "RSV-A Memphis-37b [2]; 350 mg", "value": "−1.67 (−2.95, −0.40) log10 PFU/ml"}, {"measurement": "AUC of viral load (RT-qPCR), difference in mean relative to placebo", "setting": "RSV-A Memphis-37b [3]; 200 mg", "value": "–351.40 hours x log 10 PFUe/mL"}, {"measurement": "Peak viral load (RT-qPCR), difference in mean relative to placebo", "setting": "RSV-A Memphis-37b [3]; 200 mg", "value": "–1.8 log10 PFUe/mL"}, {"measurement": "Time to peak viral load (RT-qPCR), difference in mean relative to placebo", "setting": "RSV-A Memphis-37b [3]; 200 mg", "value": "–1.68 days"}, {"measurement": "AUC of viral load (RT-qPCR), difference in mean relative to that of placebo (95% CI)", "setting": "RSV-A Memphis-37b [3]; 200 mg", "value": "−277.04 (−471.63, −82.46) log10 PFUe/ml · h"}, {"measurement": "Peak viral load (RT-qPCR), difference in mean relative to that of placebo (95% CI)", "setting": "RSV-A Memphis-37b [3]; 200 mg", "value": "−1.30 (−2.47, −0.13) log10 PFUe/ml"}, {"measurement": "Time to peak viral load (RT-qPCR), difference in mean relative to that of placebo (95% CI)", "setting": "RSV-A Memphis-37b [3]; 200 mg", "value": "−1.74 (−2.36, −1.11) days"}, {"measurement": "AUC of viral load (RT-qPCR), difference in mean relative to placebo", "setting": "RSV-A Memphis-37b [3]; 350 mg", "value": "–377.60 hours x log 10 PFUe/mL"}, {"measurement": "Peak viral load (RT-qPCR), difference in mean relative to placebo", "setting": "RSV-A Memphis-37b [3]; 350 mg", "value": "–1.85 log10 PFUe/mL"}, {"measurement": "Time to peak viral load (RT-qPCR), difference in mean relative to placebo", "setting": "RSV-A Memphis-37b [3]; 350 mg", "value": "–0.98 days"}, {"measurement": "AUC of viral load (RT-qPCR), difference in mean relative to that of placebo (95% CI)", "setting": "RSV-A Memphis-37b [3]; 350 mg", "value": "−316.14 (−506.71, −125.57) log10 PFUe/ml · h"}, {"measurement": "Peak viral load (RT-qPCR), difference in mean relative to that of placebo (95% CI)", "setting": "RSV-A Memphis-37b [3]; 350 mg", "value": "−1.59 (−2.96, −0.23) log10 PFUe/ml"}, {"measurement": "Time to peak viral load (RT-qPCR), difference in mean relative to that of placebo (95% CI)", "setting": "RSV-A Memphis-37b [3]; 350 mg", "value": "−1.06 (−1.96, −0.15) days"}]}]}
